The target in assay [1] is T1, Egl nine homolog 1 (Homo sapiens, UniProt Q9GZT9). The experiment in a line: Binding affinity to human PHD2 catalytic domain (181 to 426) Mn2 expressed in Escherichia coli by NMR spectroscopic analysis.
Assay [2] concerns the target T1, Egl nine homolog 1. The experiment in a line: Inhibition of human PHD2 catalytic domain (181 to 426) Mn2 expressed in Escherichia coli by NMR spectroscopic analysis.

By UniProt entry, the sequences of proteins in these tests, tags left out. Where a name states a change or a piece, a line headed by the entry shows the natural chain unless it says otherwise.
UniProt Q9GZT9: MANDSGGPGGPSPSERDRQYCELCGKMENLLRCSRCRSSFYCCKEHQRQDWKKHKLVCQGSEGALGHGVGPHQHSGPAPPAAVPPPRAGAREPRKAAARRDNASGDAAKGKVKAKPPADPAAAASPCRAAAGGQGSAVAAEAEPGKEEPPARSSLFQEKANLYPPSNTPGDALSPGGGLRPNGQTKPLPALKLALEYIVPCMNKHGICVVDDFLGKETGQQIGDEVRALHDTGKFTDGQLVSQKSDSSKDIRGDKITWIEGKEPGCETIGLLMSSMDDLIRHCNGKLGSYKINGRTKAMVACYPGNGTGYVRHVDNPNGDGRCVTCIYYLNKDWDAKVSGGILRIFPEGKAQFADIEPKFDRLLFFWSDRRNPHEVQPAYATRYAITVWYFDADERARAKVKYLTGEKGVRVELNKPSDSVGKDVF

What is called Kd is the concentration at which binding is half-saturated. A lower Kd goes with higher affinity. Broadly, the IC50 is the concentration at which inhibition is half-maximal.

The compound `O=C(O)c1ccc(O)c2ncccc12` yielded a Kd in assay [1] of 60 µM. In assay [2], this compound returned an IC50 of 15 µM.
